ChEMBL document CHEMBL5154771, “Discovery of Potential Neuroprotective Agents against Paclitaxel-Induced Peripheral Neuropathy” (J Med Chem, 2022)
Calls of active or inactive are those of the source. No cut-off for these calls is given here.

Legend:
[1] = tested on: Mus musculus; assay: Neuroprotective activity against paclitaxel-induced thermhypesthesia in C57BL/6J mouse neuropathy model assessed as increase in thermal sensation by measuring tail flick latency at 10 to 20 mg/kg, ip administered 1 hr prior to paclitaxel treatment on day 1, 3, 5, 7 and measured weekly for 5 weeks …; details: dose 10-20 mg/kg
[2] = tested on: Mus musculus; assay: Neuroprotective activity against paclitaxel-induced thermhypesthesia in C57BL/6 mouse neuropathy model assessed as increase in thermal sensation by measuring tail flick latency at 5 mg/kg, ip administered 1 hr prior to paclitaxel treatment on day 1, 3, 5, 7 and measured weekly for 5 weeks by tail …

For O=P(O)(O)CCN1CCC(Nc2cc(N3CCOCC3)nc(NCc3cn(CCCO)nn3)n2)CC1, the Activity [1] was “Active” and the Activity [2] was “Active”.
